{"sequences": {"note": "By UniProt entry, the sequences of proteins in these tests, tags left out.", "UniProt Q86U44, whole entry": "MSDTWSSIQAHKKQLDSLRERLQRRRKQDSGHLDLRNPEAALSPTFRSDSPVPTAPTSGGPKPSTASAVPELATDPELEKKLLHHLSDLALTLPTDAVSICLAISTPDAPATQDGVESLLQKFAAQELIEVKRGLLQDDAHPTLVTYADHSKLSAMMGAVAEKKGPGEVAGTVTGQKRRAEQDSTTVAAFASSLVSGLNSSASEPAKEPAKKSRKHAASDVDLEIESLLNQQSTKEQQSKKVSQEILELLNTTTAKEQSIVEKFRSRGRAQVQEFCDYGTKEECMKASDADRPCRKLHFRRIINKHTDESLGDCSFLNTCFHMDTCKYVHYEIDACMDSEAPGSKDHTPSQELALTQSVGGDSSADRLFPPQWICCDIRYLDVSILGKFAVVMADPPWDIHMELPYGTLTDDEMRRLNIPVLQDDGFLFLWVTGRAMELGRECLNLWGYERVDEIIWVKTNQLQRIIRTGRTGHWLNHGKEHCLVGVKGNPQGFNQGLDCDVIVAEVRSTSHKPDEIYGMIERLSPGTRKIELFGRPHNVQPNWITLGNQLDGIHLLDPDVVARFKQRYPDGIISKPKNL", "UniProt O14744, whole entry": "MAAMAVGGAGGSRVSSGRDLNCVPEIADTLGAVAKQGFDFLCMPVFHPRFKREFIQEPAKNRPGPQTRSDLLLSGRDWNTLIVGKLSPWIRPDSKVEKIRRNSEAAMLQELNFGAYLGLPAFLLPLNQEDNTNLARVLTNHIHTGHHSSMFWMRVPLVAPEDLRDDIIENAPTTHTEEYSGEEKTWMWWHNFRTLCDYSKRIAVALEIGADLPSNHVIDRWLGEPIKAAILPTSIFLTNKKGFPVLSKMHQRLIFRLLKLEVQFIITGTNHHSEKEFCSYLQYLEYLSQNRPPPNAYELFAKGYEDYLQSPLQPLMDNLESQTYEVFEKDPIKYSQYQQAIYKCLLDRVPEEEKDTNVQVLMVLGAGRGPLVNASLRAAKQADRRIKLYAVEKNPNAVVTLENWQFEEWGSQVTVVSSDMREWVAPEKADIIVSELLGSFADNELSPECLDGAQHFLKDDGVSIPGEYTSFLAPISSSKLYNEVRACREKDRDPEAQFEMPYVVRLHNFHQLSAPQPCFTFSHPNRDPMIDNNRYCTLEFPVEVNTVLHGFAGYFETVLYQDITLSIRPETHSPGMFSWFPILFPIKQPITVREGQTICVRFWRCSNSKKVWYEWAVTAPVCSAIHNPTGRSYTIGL", "UniProt Q9UBP6, whole entry": "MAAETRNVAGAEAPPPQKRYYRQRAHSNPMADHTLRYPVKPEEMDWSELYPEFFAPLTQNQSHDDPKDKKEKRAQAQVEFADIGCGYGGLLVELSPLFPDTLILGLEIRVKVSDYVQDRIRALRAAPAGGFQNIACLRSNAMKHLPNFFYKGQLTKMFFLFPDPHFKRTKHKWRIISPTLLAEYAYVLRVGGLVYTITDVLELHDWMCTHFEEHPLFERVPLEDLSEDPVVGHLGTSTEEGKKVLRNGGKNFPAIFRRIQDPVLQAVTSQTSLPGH", "UniProt Q9HCE5, whole entry partner": "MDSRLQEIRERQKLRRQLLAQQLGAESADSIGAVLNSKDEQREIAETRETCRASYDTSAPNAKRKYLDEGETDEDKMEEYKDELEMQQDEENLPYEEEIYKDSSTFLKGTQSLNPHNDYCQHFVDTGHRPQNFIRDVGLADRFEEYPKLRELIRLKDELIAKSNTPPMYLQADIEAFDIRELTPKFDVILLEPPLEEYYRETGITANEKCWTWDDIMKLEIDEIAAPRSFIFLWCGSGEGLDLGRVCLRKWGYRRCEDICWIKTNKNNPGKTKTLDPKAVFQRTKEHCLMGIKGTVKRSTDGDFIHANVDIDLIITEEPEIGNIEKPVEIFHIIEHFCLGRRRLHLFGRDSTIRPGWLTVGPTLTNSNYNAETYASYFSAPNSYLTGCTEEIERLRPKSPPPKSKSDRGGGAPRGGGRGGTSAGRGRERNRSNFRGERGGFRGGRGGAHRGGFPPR", "UniProt P57081, whole entry partner": "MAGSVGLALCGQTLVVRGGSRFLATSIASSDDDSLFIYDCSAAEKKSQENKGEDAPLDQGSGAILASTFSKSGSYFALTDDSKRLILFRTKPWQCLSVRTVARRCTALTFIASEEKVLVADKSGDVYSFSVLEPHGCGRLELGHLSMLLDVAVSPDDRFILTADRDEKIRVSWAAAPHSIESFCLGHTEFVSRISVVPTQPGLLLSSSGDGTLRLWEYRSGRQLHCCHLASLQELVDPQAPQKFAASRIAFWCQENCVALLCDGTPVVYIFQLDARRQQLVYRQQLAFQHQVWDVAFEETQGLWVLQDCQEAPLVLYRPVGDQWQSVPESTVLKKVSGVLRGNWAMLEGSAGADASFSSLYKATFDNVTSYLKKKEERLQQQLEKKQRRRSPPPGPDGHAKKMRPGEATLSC", "UniProt Q9BQA1, whole entry partner": "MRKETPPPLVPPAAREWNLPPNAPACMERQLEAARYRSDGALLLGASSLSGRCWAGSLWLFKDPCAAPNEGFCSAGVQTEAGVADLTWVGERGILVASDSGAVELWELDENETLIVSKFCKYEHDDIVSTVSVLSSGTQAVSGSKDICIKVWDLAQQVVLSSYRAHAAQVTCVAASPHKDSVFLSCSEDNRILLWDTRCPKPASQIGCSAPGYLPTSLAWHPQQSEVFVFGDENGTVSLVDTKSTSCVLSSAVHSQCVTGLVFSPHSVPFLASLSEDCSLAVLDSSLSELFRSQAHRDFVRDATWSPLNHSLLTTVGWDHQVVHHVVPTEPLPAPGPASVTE"}, "source": "patent US20220372040A1", "about": "“METTL3 MODULATORS” (Accent Therapeutics, Inc., priority 2020, published 2022)", "key": {"METTL3/METTL14": {"target": "METTL3/METTL14 (Homo sapiens, UniProt Q86U44)", "assay": "METTL3-14 standard enzyme assay (3H-SAM flashplate scintillation)", "conditions": "read-out: METTL3 IC50; METTL3/METTL14 2.5 nM, RNA 100 nM, 3H-SAM 100 nM, 30 min", "protocol": "METTL3-14 Standard Enzyme Assay\n(§1) Assays were performed in a 25 μl-volume in 384-well V-bottom polypropylene microplates (Greiner Bio-One, cat. No. 781280) at ambient temperature. Optimized 1× assay buffer was 20 mM HEPES pH 7.5, 50 mM KCl, 250 μM MgCl2, 1 mM DTT, 0.01% Tween, 0.01% BSG, 0.004 U/μl RNAseOUT (cat. No. 10777019, ThermoFisher Scientific, Waltham, Mass.). For compound screening METTL3/METTL14 (final concentration, f.c.=2.5 nM) was added using a Multidrop Combi (ThermoFisher Scientific, Waltham, Mass.) and preincubated for 5 min. Reactions were started by adding 3′ biotinylated RNA (UCUGGACUAAA-biotin) (f.c.=100 nM) and 3H-SAM (f.c.=100 nM) substrates. Reactions proceeded for 30 minutes and were quenched with excess non-radioactive SAM (f.c.=15 μM). The reactions were then transferred to streptavidin-coated flashplates and incubated for 2 hours at 25° C. Following two washing cycles with 0.1% Tween-20, the plates were sealed and read on a TopCount (PerkinElmer, Waltham, Mass.) plate-based scintillation counter. For determination of kinetic parameters, reaction times were optimized so that measurements were taken during the initial velocity phase of the reaction."}, "PRMT5-MEP50": {"target": "PRMT5-MEP50 (Homo sapiens, UniProt O14744)", "assay": "PRMT5 assay (3H-SAM flashplate scintillation)", "conditions": "read-out: PRMT5 IC50; PRMT5-MEP50 2.5 nM, histone H4 peptide 100 nM, 3H-SAM 250 nM, 60 min", "protocol": "Assays were performed in a 25 μl-volume in 384-well V-bottom polypropylene microplates (Greiner Bio-One, cat. No. 781280) at ambient temperature. Optimized 1× assay buffer was 20 mM Tris-HCl pH 8.0, 1 mM DTT, […]. For compound screening PRMT5-MEP50 (final concentration, f.c.=2.5 nM) was added using a Multidrop Combi (ThermoFisher Scientific, Waltham, Mass.) and preincubated for 5 min. Reactions were started by adding 3′ biotinylated histone H4 peptide acetylated on serine 1 (Ac-[…]-Biotin) (f.c.=100 nM) and 3H-SAM (f.c.=250 nM) substrates. Reactions proceeded for 60 minutes and were quenched with excess non-radioactive SAM (f.c.=15 μM). The reactions were then transferred to streptavidin-coated flashplates and incubated for 2 hours at 25° C. Following two washing cycles with 0.1% Tween-20, the plates were sealed and read on a TopCount (PerkinElmer, Waltham, Mass.) plate-based scintillation counter. For determination of kinetic parameters, reaction times were optimized so that measurements were taken during the initial velocity phase of the reaction."}, "METTL1/WDR4": {"target": "METTL1/WDR4 (Homo sapiens, UniProt Q9UBP6)", "assay": "METTL1 assay (3H-SAM flashplate scintillation)", "conditions": "read-out: METTL1 IC50; METTL1/WDR4 6.25 nM, RNA 25 nM, 3H-SAM 60 nM, 20 min", "protocol": "as §1, with “METTL1/WDR4” for “METTL3/METTL14”, “f.c.=6.25” for “f.c.=2.5”, “([…]-biotin) (f.c.=25” for “(UCUGGACUAAA-biotin) (f.c.=100”, “(f.c.=60” for “(f.c.=100”, “20” for “30”"}, "[1]": {"test_system": "m^6 A in cellular mRNA of MOLM-13 cells", "assay": "m^6 A-mRNA LC-MS/MS assay (m^6 A cellular assay)", "conditions": "read-out: m^6A IC50, 24 hours incubation, LC-MS/MS of m^6 A/A in mRNA", "protocol": "m^6 A-mRNA LC-MS/MS Assay\n5×10^6 MOLM-13 (DSMZ) cells were seeded into 10 cm dishes in RPMI 1640 media containing 10% fetal bovine serum and placed in a humidified tissue culture incubator at 37° C. overnight. Compounds were resuspended in 100% DMSO and dosed into each dish at a fixed concentration to comprise an 8-point dose response with a 4-fold serial dilution ranging from 25 μM to 1.5 nM in 0.25% DMSO final and allowed to incubate for 24 hours in a humidified tissue culture incubator at 37° C. Cells were harvested by centrifugation followed by mRNA extraction using DTRECT Dynabeads mRNA DTRECT kit (Life Technologies). mRNA was quantified on NanoDrop spectrophotometer (Thermo Fisher Scientific) and digested into single nucleosides using Nucleoside Digestion Mix (New England Biolabs). Nucleosides are quantified with retention time on a BEH […] column (Waters) and the nucleoside-to-base ion mass transition of 282.1-150.1 (m^6 A) and 268-136 (A) on an API 6500+ triple quadrupole mass spectrometer. Quantification is performed in comparison with the standard curve, obtained from pure nucleoside standards (Selleck Chemicals) running with the same batch of samples. Percentage m^6 A in cellular mRNA is calculated as 100*(m^6 A/A)."}, "MOLM-13 cells": {"test_system": "MOLM-13 cells", "assay": "MOLM-13 48 Hour cell proliferation assay (Cell Titer-Glo)", "conditions": "read-out: MOLM-13 48 Hour cell proliferation IC50", "protocol": "MOLM-13 48 Hour Cell Proliferation Assay\nMOLM-13 (DSMZ) cells were seeded at 1000 cells per well in a volume of 44 μL in a Falcon 384-well tissue culture treated clear bottom microplate in RPMI 1640 media containing 10% fetal bovine serum using a Multidrop Combi (ThermoFisher Scientific). Cells were incubated overnight at 37° C. in a humidified tissue culture incubator. The Mosquito® HTS Liquid Handler was used to make a compound/media intermediate plate by aliquoting […] of compound from the initial compound dilution plate (concentrations ranging from 10.0 mM to 38.0 nM in 100% DMSO) into a V bottom 384-well screen matrix plate containing 49 µL of media containing the appropriate serum (50-fold dilution, 2% DMSO). […] The plate was read on an EnVision plate reader (Perkin Elmer) using the Ultra Sensitive Luminescence protocol. Data analysis was performed by normalizing the raw luminescence units to an average of the positive control values for staurosporine (100% cell death) and the negative control values for DMSO (0% cell death). An IC50 was calculated using a 4-parameter logistic nonlinear regression model in GraphPad Prism."}}, "note": "pIC50: −log10 of the molar value."}
{"smiles": "CNc1ccc2ccc(OCc3cncc(-n4cc(C5CCCC5)c5c(N)ncnc54)c3)cc2n1", "note": "[Compound I-58]", "values": [{"measurement": "pIC50", "setting": "METTL3/METTL14", "result": "7.00 to 8.00"}, {"measurement": "pIC50", "setting": "PRMT5-MEP50", "result": "< 6.00"}, {"measurement": "pIC50", "setting": "METTL1/WDR4", "result": "< 6.00"}, {"measurement": "pIC50", "setting": "[1]", "result": "5.00 to 6.00"}, {"measurement": "pIC50", "setting": "MOLM-13 cells", "result": "5.00 to 6.00"}]}
